The values that follow come from PubChem BioAssay AID652048 (National Center for Advancing Translational Sciences (NCATS), 2013).

Sequences of proteins named here, by UniProt entry; tags and fusion partners are left off.
UniProt P35462, whole entry, looked up: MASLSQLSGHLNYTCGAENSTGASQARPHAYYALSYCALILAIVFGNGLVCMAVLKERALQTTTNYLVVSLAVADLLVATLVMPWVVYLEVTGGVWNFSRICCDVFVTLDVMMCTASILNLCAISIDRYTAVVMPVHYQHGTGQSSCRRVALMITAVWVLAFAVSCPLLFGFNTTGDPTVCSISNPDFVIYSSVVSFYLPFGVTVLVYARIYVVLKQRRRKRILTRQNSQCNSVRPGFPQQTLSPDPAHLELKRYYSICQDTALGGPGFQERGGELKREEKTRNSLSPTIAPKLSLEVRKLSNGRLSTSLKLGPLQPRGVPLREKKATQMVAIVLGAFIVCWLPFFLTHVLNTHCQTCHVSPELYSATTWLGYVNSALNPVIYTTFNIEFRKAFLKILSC

Where “and” joins values, the source holds several entries; their conditions need not be identical. Equal entries are not always repeated. Only a part is listed here, and it is no random draw. Calls of active or inactive are those of the source. Rule as the data show it: active = max activation above about 30%; inactive = the rest.

The target of this assay is D(3) dopamine receptor (Homo sapiens) (UniProt P35462). In words: qHTS of D3 Dopamine Receptor Agonist: qHTS. Also: 0% is about no effect. The following applies: D3R DiscoveRx beta-arrestin cells, luminescence, 90 min; stronger effect = higher value. The text has this:
D3 DARs represent a very important target for the treatment of several neuropsychiatric disorders. Indeed, one of the most promising therapeutic applications for the D3 DAR is in the area of addiction and related disorders. […] These findings have been observed with a number of addictive substances including cocaine, amphetamine, nicotine, and alcohol. […] Antagonism of the D3 DAR may also be therapeutic in the treatment of schizophrenia or psychosis. […] Since the D3 DAR is expressed in areas of the CNS associated with the control of mood and emotion, it has been hypothesized that selective antagonism of the D3 DAR may be effective in treating psychosis without inducing the motor side effects typically seen with D2 DAR antagonists.
This part of the project aims to discover novel agonist.
NIH Chemical Genomics Center [NCGC]
NIH Molecular Libraries Probe Centers Network [MLPCN]
Assay Submitter (PI): David Sibley, NINDS
Freshly passaged cells are plated in 1536 well white, solid bottom plates at a density of 1500 cells/well in 3microl of complete media. After an overnight incubation at 37 degrees C in 5% CO2, cells are loaded with 23nl of test compound from the compound library (as well as dopamine controls) using a 1536 pintool and incubated at 37 degrees C for 90 minutes. Two microliters of DiscoveRx reagent is then added to all cells, and they are incubated for an additional 30 - 60 minutes at room temperature. Following incubation, luminescence is measured on a ViewLux CCD-based luminometer reader using a 20 sec exposure time.
As to `C[C@H]1OP(=O)(Oc2ccccc2)[C@H](O)[C@H](O)[C@H]1N=[N+]=[N-]` (stereo partly specified), the max activation is inactive: 2.12%. Regarding `Cc1cc([N+](=O)[O-])cc([N+](=O)[O-])c1O`, the max activation is inactive: 5.68%. Turning to `CN(C(=O)Cc1ccccc1)[C@H]1CC[C@@]2(CCCO2)C[C@@H]1N1CCCC1`, the max activation is inactive: -10.8%. Under `COc1ccc(N)c([N+](=O)[O-])c1[N+](=O)[O-]` stands inactive: 1.7%; under `Nc1ccc(CCCCOc2ccccc2)cc1`, inactive: -13.8%.

Consider `O=P(Nc1ccccn1)(c1ccc(Br)cc1)c1ccc(Br)cc1`, for which the max activation was inactive: -1.03%. Regarding `CN(C)C1(CNC(=O)c2ccc(Cl)c(S(N)(=O)=O)c2)CCCCC1`, the max activation was inactive: -2.65%.

For the molecule `c1nnnn1CCn1cnnn1`, the max activation is inactive: -0.278%.

Regarding `CC(C)C(=O)NC(Sc1ccccc1)C(Cl)(Cl)Cl` (stereo unspecified), the max activation is inactive: -23.2%.

With `O=P(Nc1nccs1)(c1ccccc1)c1ccccc1`, the max activation was inactive: 6.7%. Under `CC(=O)Nc1ccc([As](=O)(O)O)c(O)c1` stands inactive: 6.44%. Turning to `CC(=O)Nc1ccc(Oc2c([N+](=O)[O-])cc([N+](=O)[O-])cc2[N+](=O)[O-])cc1`, the max activation was inactive: -3.5%. Turning to `CC(=O)c1ccc(N2CC2c2ccncc2)cc1` (stereo unspecified), the max activation was inactive: 4.39%.

Consider `N#C/C(=C\c1ccc(N(CCBr)CCBr)cc1)C(N)=O`, for which the max activation was inactive: 2.43%. Under `COC(=O)C1(C)COP(=O)(NCc2ccccc2)OC1` (stereo unspecified) stands inactive: 6.69%. On to `Cc1ccccc1CN(C)C(=O)COC(=O)C(O)(c1ccccc1)c1ccccc1`, for which the max activation was inactive: 8.37%.

Turning to `C[C@H]1OP(=O)(Oc2ccccc2)C[C@@H]2O[C@@H]21` (stereo partly specified), the max activation is inactive: 0.476%. The figure for `C[C@@H]1C=CCP(=O)(Oc2ccccc2)O1` (stereo partly specified) is active: 43.7%.

For the molecule `CCc1cc(O)c([N+](=O)[O-])c(C)c1[N+](=O)[O-]`, the max activation is inactive: 5.51%. Under `CC(C)(C)C(=O)NC(Sc1ccccc1)C(Cl)(Cl)Cl` (stereo unspecified) stands inactive: -1.84%. For `O=P1(Nc2nc3ccc(Cl)cc3s2)COc2ccccc2O1` (stereo unspecified), the max activation is inactive: 1.49%. Under `CCOc1ccc(C2=NCC(CBr)S2)cc1` (stereo unspecified) stands inactive: -1.22%; under `CC(NC(=O)COC(=O)C(O)(c1ccccc1)c1ccccc1)c1ccccc1` (stereo unspecified), inactive: 0.268%; under `Cc1ccccc1OP(=O)(Nc1ccccn1)Oc1ccccc1C`, inactive: 6.92%. Turning to `O=c1c2cc([N+](=O)[O-])ccc2[nH]c2c([N+](=O)[O-])cc([N+](=O)[O-])cc12`, the max activation was inactive: -11.7%.

Consider `CN(C)C(=O)Oc1noc2ccccc12`, for which the max activation is inactive: 8.35%. `COC(=O)c1cc2c(s1)N=C(c1ccccc1)N(C)P2(=O)N1CCOCC1` (stereo unspecified): the max activation was inactive: 7.02%. Regarding `Cc1ccc(OP(=O)(Nc2ccccn2)Oc2ccc(C)cc2)cc1`, the max activation is inactive: 10.4%. Under `CC(=O)NC(SC(=S)N(CC(C)C)CC(C)C)C(Cl)(Cl)Cl` (stereo unspecified) stands inactive: -0.928%; under `O=C(OC1CN2CCC1CC2)c1ccccc1` (stereo unspecified), inactive: 22.6% and inactive: -5.42%; under `CCC(=O)N1C2C3N(C(=O)CC)C1C1N(C(=O)CC)C(C(N1C(=O)CC)N3C(=O)CC)N2C(=O)CC`, inactive: 3.05%. `O=P1(N(CCCl)CCCl)OCCC2CCCCN21` (stereo unspecified): the max activation was inactive: -14.5%.

Consider `CCNC(=S)/N=C(\N)N[N+](=O)[O-]`, for which the max activation was inactive: -5.01%. Under `O=C(NC1CCS(=O)(=O)C1)NP(=S)(Oc1ccccc1)Oc1ccccc1` (stereo unspecified) stands inactive: 0.448%. The figure for `c1ccc(-c2nn[nH]n2)c(-c2nn[nH]n2)c1` is inactive: 10.6%; for `Cc1ccc(NP(=O)(Oc2cccc(C)c2)Oc2cccc(C)c2)nc1` it is active: 30%. `CCN(N=Nc1nonc1N)c1nonc1N`: the max activation is inactive: -9.92%. With `Nc1cccc2ccc([As](=O)(O)O)cc12`, the max activation was inactive: 2.33%.

`Cc1cc(SC(NC(=O)c2ccc(F)cc2)C(Cl)(Cl)Cl)ncn1` (stereo unspecified): the max activation was inactive: 1.8%.

As for `CCOP(=O)(Nc1ccccc1)OCC`, the max activation was inactive: 3.64%.

In the case of `Cc1ccc(NP(=O)(Oc2ccccc2F)Oc2ccccc2F)nc1`, the max activation was inactive: -7.72%. The figure for `CN(C(=O)Cc1ccc(Cl)c(Cl)c1)[C@H]1CCCC[C@@H]1N1CCCC1` is inactive: -3.49%. For `CC(=O)Nc1ccc([As](=O)(O)O)cc1`, the max activation was inactive: 3.85%. Under `O=C(O)c1ccccc1[As](=O)(O)O` stands inactive: 27.4%; under `CCCC1OP(N)(=O)OCC1CC` (stereo unspecified), inactive: -0.322%; under `O=P(Nc1nc2ccc(Cl)cc2s1)(c1ccccc1)c1ccccc1`, inactive: 11.3%. Under `CN(C)P(=O)(N(C)C)n1c(Nc2ccccc2)nnc1-c1ccccc1` stands inactive: -0.632%; under `O=[N+]([O-])C1C(O)C(O)C([N+](=O)[O-])C(O)C1O` (stereo unspecified), inactive: 5.15%. Regarding `Nc1cc(N)c2nonc2c1[N+](=O)[O-]`, the max activation was inactive: -0.178%. Take `CC(C)CC(=O)NC(Sc1ccc(Cl)cc1)C(Cl)(Cl)Cl` (stereo unspecified): the max activation is inactive: -7.42%. The figure for `Oc1ccccc1CNc1ccccn1` is inactive: 2.23%. `O=C(NC(Sc1ccncn1)C(Cl)(Cl)Cl)c1ccccc1` (stereo unspecified): the max activation was inactive: -16.6%.

With `COc1ccccc1OP(=O)(Nc1ccc(C)cn1)Oc1ccccc1OC`, the max activation was inactive: 4.54%. Regarding `Cc1ccc(OP(=O)(Nc2nccs2)Oc2ccc(C)cc2)cc1`, the max activation is inactive: 2.43%.

As to `CN1CCCC(OC(=O)C(c2ccccc2)c2ccccc2)C1` (stereo unspecified), the max activation is inactive: -2.47%. As to `CCNC(C)Cc1ccc2c(c1)OCO2` (stereo unspecified), the max activation is inactive: -18.8%. As to `Clc1ccc(Cl)c(NC2=NCC(CBr)S2)c1` (stereo unspecified), the max activation was inactive: 5.39%.

In the case of `NC(=O)c1cc([N+](=O)[O-])cc([N+](=O)[O-])c1N`, the max activation is inactive: 3.46%. Take `CN(C(=O)Cc1ccc(Cl)c(Cl)c1)[C@H]1CCCC[C@H]1N1CCCC1`: the max activation was inactive: 0.329%. Under `Cc1ccc(N/C(=N/P(=O)(N2CCOCC2)N2CCOCC2)N2CCOCC2)cc1` stands inactive: 4.02%. For `CC(C)c1nc(Nc2ccccc2)n(P(=O)(N(C)C)N(C)C)n1`, the max activation was inactive: -1.73%. Take `CC(C)=N/N=C(\N)N[N+](=O)[O-]`: the max activation was inactive: 8.54%. In the case of `CN(C)C(=O)OCCc1n(C)cc[n+]1C`, the max activation was inactive: -0.296%. Under `CC1CCN(C(=O)Oc2c(Cl)cc(Cl)c3cccnc23)CC1` stands inactive: 5.72%.

Regarding `c1cc(-c2nn[nH]n2)ccc1-c1nn[nH]n1`, the max activation is inactive: -11.4%. The figure for `Nc1ccc([As](=O)(O)c2ccc(N)cc2)cc1` is inactive: 9.51%. The figure for `C[N+]1=C2C=CC=CC=C2SC12C([N+](=O)[O-])=CC([N+](=O)[O-])=C[C-]2[N+](=O)[O-]` (stereo unspecified) is inactive: -26.9%; for `CCN(/C(=N/P(=O)(N1CCOCC1)N1CCOCC1)N1CCOCC1)c1ccc(OC)cc1` it is inactive: -1.74%; for `O=[N+]([O-])c1cccc2n[nH]nc12` it is inactive: -6.41%.

For the molecule `CC(=O)N1C2C3N(C(C)=O)C1C1N(C(C)=O)C(C(N1C(C)=O)N3C(C)=O)N2C(C)=O`, the max activation was inactive: -1.02%. Under `Cc1ccc(NP(=O)(Oc2ccccc2)Oc2ccccc2)nc1` stands inactive: -4.97%; under `CCc1nc2c(n1)c1c(non1O)c1c2no[n+]1[O-]`, inactive: -1.77%. As to `O=[N+]([O-])c1cc([N+](=O)[O-])c(CCNc2ccccc2)c([N+](=O)[O-])c1`, the max activation is inactive: -3.84%. Consider `COc1ccc(C2=NCC(CBr)S2)cc1` (stereo unspecified), for which the max activation is inactive: 2.21%.

With `COC(=O)C1(C)COP(=O)(Nc2ccccc2)OC1` (stereo unspecified), the max activation is inactive: 1.88%.

In the case of `O=[N+]([O-])c1cccc(NC2=NCC(CBr)S2)c1` (stereo unspecified), the max activation was inactive: 1.27%. On to `O=C(O)CNc1ccc([As](=O)(O)O)cc1`, for which the max activation was inactive: -0.393%. The figure for `CC(C)(C)C(=O)NC(Sc1ccncn1)C(Cl)(Cl)Cl` (stereo unspecified) is inactive: -3.97%; for `O=[N+]([O-])c1ncn(CCn2ncnc2[N+](=O)[O-])n1` it is inactive: 1.37%. Take `O=C(Nc1cc([As](=O)(O)O)ccc1O)c1ccccc1`: the max activation is inactive: -0.851%. As to `O=P1(N(CCCl)CCCl)OCCCS1` (stereo unspecified), the max activation is inactive: -2.1%.
